This passage reports IC50 results from ChEMBL document CHEMBL1132530, “Picking the S1, S1' and S2' pockets of matrix metalloproteinases. A niche for potent acyclic sulfonamide inhibitors” (Bioorg Med Chem Lett, 1999).

For the test, the target named is T1, Interstitial collagenase (Homo sapiens, UniProt P03956).
T1 sequence (P03956 whole entry): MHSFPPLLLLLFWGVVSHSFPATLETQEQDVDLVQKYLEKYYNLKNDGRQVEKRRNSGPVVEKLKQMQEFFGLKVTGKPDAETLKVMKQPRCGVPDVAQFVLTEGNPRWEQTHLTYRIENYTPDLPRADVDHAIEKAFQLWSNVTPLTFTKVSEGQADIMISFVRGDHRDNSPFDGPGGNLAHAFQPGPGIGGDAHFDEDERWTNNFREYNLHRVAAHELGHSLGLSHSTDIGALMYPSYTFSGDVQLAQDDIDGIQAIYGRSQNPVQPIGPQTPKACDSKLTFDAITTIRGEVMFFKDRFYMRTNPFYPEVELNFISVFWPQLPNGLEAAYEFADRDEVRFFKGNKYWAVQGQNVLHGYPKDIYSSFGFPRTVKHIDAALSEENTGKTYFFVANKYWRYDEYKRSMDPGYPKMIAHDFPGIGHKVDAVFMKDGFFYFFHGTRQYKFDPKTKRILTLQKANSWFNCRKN
The test can be described thus: Inhibition of matrix metalloprotease-1.

Usually IC50 stands for the concentration that inhibits the measured activity by half. As to `COc1ccc(S(=O)(=O)N(Cc2cccnc2)[C@@H](C(=O)NO)C(C)C)cc1` [CGS-27023A], 96 nM corresponded to half-maximal inhibition (IC50).
